Target: Mitogen-activated protein kinase kinase kinase 14 (Homo sapiens, UniProt Q99558)
Experiment: Inhibition Assay: The ability of the nuclear factor-kappa B (NF-kB)-inducing kinase (NIK) to catalyze the hydrolysis of adenosine-5'-triphosphate (ATP) was monitored using the Transcreener ADP (adenosine-5'-diphosphate) assay (BellBrook Labs). Purified NIK (0.2-1 nM) derived from a baculovirus-infected insect cell expression system was incubated with test compounds for 1-3.5 hours in 50 mM 2-[4-(2-hydroxyethyl)piperazin-1-yl]ethanesulfonic acid buffer (pH 7.2) containing 10 mM MgCl2, 2 mM dithiothreitol, 10 uM ATP, 0.01% Triton X-100, 0.1% gamma-globulins from bovine blood, 1% dimethylsulfoxide (DMSO), 12 ug/mL ADP antibody and 4 nM ADP-AlexaFluor.RTM. […] Reactions were quenched by the addition of 20 mM 2,2',2'',2'''-(ethane-1,2-diyldinitrilo)tetraacetic acid and 0.01% Brij 35. The tracer bound to the antibody was displaced by the ADP generated during the NIK reaction, which causes a decrease in fluorescence polarization that was measured by laser excitation.

By UniProt entry, the sequences of proteins in these tests, tags left out. Where a name states a change or a piece, a line headed by the entry shows the natural chain unless it says otherwise.
UniProt Q99558: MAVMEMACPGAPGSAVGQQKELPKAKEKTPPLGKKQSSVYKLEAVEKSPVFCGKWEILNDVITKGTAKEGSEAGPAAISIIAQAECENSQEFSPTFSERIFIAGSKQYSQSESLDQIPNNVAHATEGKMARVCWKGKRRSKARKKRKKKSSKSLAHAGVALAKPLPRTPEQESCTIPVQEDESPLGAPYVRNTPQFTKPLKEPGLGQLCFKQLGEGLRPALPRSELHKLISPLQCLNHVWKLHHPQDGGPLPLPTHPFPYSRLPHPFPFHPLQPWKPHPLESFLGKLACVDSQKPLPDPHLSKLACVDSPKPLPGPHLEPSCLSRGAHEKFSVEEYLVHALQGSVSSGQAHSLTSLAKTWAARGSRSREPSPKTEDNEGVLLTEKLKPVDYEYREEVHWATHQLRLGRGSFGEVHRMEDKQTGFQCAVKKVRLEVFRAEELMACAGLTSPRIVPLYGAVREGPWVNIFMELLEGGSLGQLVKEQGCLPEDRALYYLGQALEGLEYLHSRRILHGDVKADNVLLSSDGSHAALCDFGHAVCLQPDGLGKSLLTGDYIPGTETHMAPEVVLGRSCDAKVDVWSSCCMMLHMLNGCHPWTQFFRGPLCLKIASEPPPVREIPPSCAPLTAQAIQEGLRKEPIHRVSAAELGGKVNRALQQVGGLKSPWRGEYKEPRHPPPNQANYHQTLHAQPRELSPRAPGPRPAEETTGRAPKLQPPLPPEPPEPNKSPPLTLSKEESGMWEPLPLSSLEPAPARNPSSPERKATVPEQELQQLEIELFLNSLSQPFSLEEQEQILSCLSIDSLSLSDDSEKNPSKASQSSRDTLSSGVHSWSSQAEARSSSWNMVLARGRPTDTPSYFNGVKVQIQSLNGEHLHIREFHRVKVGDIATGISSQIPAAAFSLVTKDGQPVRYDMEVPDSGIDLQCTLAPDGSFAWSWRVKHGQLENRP

CC(C)(O)C#Cc1ccc2c(c1)-c1nc(C(N)=O)c(C#CC(C)(C)O)n1CCO2
Ki: 289 nM

CNC(=O)c1c(C(N)=O)nc2n1CCOc1ccc(C#CC(C)(O)COC)cc1-2 (configuration not stated)
Ki: 7 nM

From ChEMBL document CHEMBL3638554 (2015)
